Source: publication PMC9785231, “Synthesis and Pharmacological Evaluation of Enantiopure N-Substituted Ortho-c Oxide-Bridged 5-Phenylmorphans” (Molecules, 2022)

Legend:
in vitro = settings: human, microsomes
[1] = Microsomal metabolic stability, human liver microsomes; settings: HLM 0.5

SMILES | microsomal CLint (in vitro) | CLint(mic) [1]
O=C(O)Cc1ccccc1Nc1c(Cl)cccc1Cl [Diclofenac] | 180 µL/min/mg | 
C[C@]12CC[C@H]3[C@@H](CCC4=CC(=O)CC[C@@]43C)[C@@H]1CC[C@@H]2O [Testosterone] |  | 107.1 µL/min/mg
